Measured values: patent US8383666B2, “Pyrrole derivatives, preparation of same and therapeutic application thereof” (Sanofi, priority 2008, dated 2013)

Sequences of proteins named here, by UniProt entry; tags and fusion partners are left off.
UniProt P47746, whole entry: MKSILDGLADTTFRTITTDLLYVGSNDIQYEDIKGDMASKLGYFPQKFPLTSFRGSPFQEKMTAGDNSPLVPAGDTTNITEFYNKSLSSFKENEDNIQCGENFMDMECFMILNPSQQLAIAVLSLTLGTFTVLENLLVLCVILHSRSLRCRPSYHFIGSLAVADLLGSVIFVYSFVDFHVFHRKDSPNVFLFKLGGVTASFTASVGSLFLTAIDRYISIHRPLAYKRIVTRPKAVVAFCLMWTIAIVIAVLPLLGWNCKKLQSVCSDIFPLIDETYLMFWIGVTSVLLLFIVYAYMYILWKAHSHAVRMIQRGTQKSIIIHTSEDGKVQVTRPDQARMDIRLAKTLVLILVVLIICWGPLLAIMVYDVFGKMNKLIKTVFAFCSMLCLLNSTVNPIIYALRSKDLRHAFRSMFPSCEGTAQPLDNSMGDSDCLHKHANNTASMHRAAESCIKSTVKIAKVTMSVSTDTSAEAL

Legend:
[1] = target: T1, CB1 receptors present at the periphery (Mus musculus, UniProt P47746); experiment: blocking of the inhibitory effect of CP55940 on gastrointestinal transit; type: in vivo; details: per os at 10 mg/kg, mice
T1 construct: from tissue; host or cells: living mouse, peripheral (gastrointestinal) CB1 receptors

[2] = target: T2, CB1 receptors present in the brain (Mus musculus, UniProt P47746); experiment: Measurement (3): blocking of the hypothermic effect induced by CP55940; type: in vivo; set-up: [CB1 receptors present; from tissue; host or cells: living animal, brain CB1 receptors; details: iv at 10 mg/kg
Description: (§1) Preferably, this percentage is less than 40%, and more preferably less than 30%.

[3] = target: T2, CB1 receptors present in the brain; experiment: Measurement (2): ex vivo binding of [3H]-CP55940 in the brain after intravenous administration; set-up: the CB1 receptors present in the brain in mice; from tissue; host or cells: mouse brain (after intravenous dosing); details: iv at 10 mg/kg, mice
Description: as §1

Cc1c(C(=O)NN2CCCCC2)nn(-c2ccc(Cl)cc2Cl)c1-c1ccc(Cl)cc1 [rimonabant, reference compound]
100%: % reversion of the effect of CP55940 on GI transit [1] | % reversion of the hypothermic effect of CP55940 [2] | % inhibition of [3H]-CP55940 binding at the level of the brain [3]
